{
  "source": "patent US20160251408",
  "key": {"[1]": {"tested_on": "VWF-056 (VWF D′D3-Fc fusion construct; 46 aa VWF linker comprising an a3 region from FVIII)"}, "[2]": {"tested_on": "VWF-054 (VWF D′D3-Fc fusion construct; 40 aa VWF linker comprising an a1 region from FVIII)"}, "[3]": {"tested_on": "VWF-051 (VWF D′D3-Fc fusion construct; 54 aa linker with thrombin cleavage site A-L-R-P-R-V-V)"}, "[4]": {"tested_on": "VWF-055 (VWF D′D3-Fc fusion construct; 34 aa VWF linker comprising an a2 region from FVIII)"}, "[5]": {"tested_on": "VWF-039 (VWF D′D3-Fc fusion construct; 26 aa VWF linker with LVPR thrombin cleavage site and PAR1 exosite interaction motif)"}},
  "data": [
    {"substance": "human alpha-thrombin", "values": [
      {"measurement": "thrombin cleavage, fold reduction (Biacore; reference not given, by context VWF-039/VWF-055)", "setting": "[1]", "result": "showed ˜5-fold reduced thrombin cleavage"},
      {"measurement": "thrombin cleavage, fold reduction (Biacore; reference not given, by context VWF-039/VWF-055)", "setting": "[2]", "result": "showed ˜5-fold reduced thrombin cleavage"},
      {"measurement": "slope of thrombin-mediated cleavage rate (RU/s) vs capture density (RU), as ratio to VWF-031 (Biacore, 5 U/ml thrombin, 37 C)", "setting": "[3]", "result": "slopeVWF-051/slopeVWF-031 is 1.8"},
      {"measurement": "slope of thrombin-mediated cleavage rate (RU/s) vs capture density (RU), as ratio to VWF-031 (Biacore, 5 U/ml thrombin, 37 C)", "setting": "[4]", "result": "SlopeVWF-055/slopeVWF-031 is 65"},
      {"measurement": "slope of thrombin-mediated cleavage rate (RU/s) vs capture density (RU), as ratio to VWF-031 (Biacore, 5 U/ml thrombin, 37 C)", "setting": "[5]", "result": "SlopeVWF-039/slopeVWF-031 is 71"},
      {"measurement": "thrombin cleavage rate relative to VWF-031 (Biacore)", "setting": "[5]", "result": "approximately 70-80-fold faster than VWF-031 (LVPR)"}
    ]}
  ]
}
